{"source": "patent US9243019B2", "about": "“Hydroxysafflor yellow A sodium and preparation as well as application thereof” (priority 2013, dated 2016)", "key": {"[1]": {"assay_type": "physicochemical", "settings": "Table 4, accelerated for 1 month; hydroxysafflor yellow A by acidizing purity 99.2%, sodium salt purity 99.2%"}, "cerebral basilar artery": {"tested_on": "cerebral basilar artery", "settings": "phenylephrine tension; 10 mg/ml added every 5 min, 4-5 times"}, "coronary artery ring": {"tested_on": "coronary artery ring", "settings": "phenylephrine tension; 10 mg/ml added every 5 min, 4-5 times"}, "[2]": {"tested_on": "platelet aggregation induced by the ADP and the PAF", "settings": "rabbit, intravenous once a day for 5 days, blood within 2 h after last injection"}, "cerebral blood flow": {"tested_on": "cerebral blood flow", "settings": "medium and high dosage groups after intravenous injection"}, "[3]": {"tested_on": "platelet aggregation of the rat", "settings": "15 minutes flow"}, "blood viscosity": {"tested_on": "blood viscosity", "settings": "rabbit"}, "[4]": {"tested_on": "acute myocardial infarction", "assay": "acute myocardial infarction of anesthetized dog by coronary artery ligation (ST segment elevation, infarction range)", "assay_type": "in vivo"}, "[5]": {"tested_on": "cerebral vascular permeability", "settings": "medium and high dosage groups, intravenous once a day for 7 days"}, "[6]": {"settings": "10 mg/kg intravenous injection, dog, 4 h"}}, "note": "Where two headings read alike, the source gives them in different places."}
{"compound": "O=C(/C=C/c1ccc(O)cc1)C1=C(O)C(O)(C2OC(CO)C(O)C(O)C2O)C(O)=C(C2OC(CO)C(O)C(O)C2O)C1=O", "note": "(stereo not shown) [Hydroxysafflor yellow A, hydroxysafflor yellow A]", "values": [{"measurement": "Content (counting Hydroxyl A)", "setting": "[1]", "value": 94.1, "unit": "%"}]}
{"compound": "hydroxysafflor yellow A sodium", "values": [{"measurement": "relaxation effect on a cerebral vascular ring", "setting": "cerebral basilar artery", "value": 72.8, "unit": "%"}, {"measurement": "relaxation effect on a cardiac vascular ring", "setting": "coronary artery ring", "value": 30.9, "unit": "%"}, {"measurement": "preventing the platelet aggregation induced by the ADP and the PAF", "setting": "[2]", "value": "sufficient effect on presenting the platelet aggregation"}, {"measurement": "cerebral blood flow", "setting": "cerebral blood flow", "value": "effect of increasing the blood flow"}, {"measurement": "maintaining time of the blood flow increase", "setting": "cerebral blood flow", "value": "about 15 min"}, {"measurement": "weight of the platelet adhered", "setting": "[3]; high dosage group", "value": "9.02 ± 1.29", "unit": "mg"}, {"measurement": "weight of the platelet adhered", "setting": "[3]; low dosage group", "value": "13.8 ± 1.95", "unit": "mg"}, {"measurement": "weight of the platelet adhered", "setting": "[3]; medium dosage group", "value": "9.87 ± 1.50", "unit": "mg"}, {"measurement": "effect on blood viscosity of the high dosage group compared to positive control", "setting": "blood viscosity; high dosage group", "value": "better than the positive control nimodipine injection group"}, {"measurement": "blood viscosity indexes low-cut, medium-cut and high-cut compared to the solvent control group", "setting": "blood viscosity; intravenous once a day for 5 days, 2 hour after last injection", "value": "decreased with increase of the dosage"}, {"measurement": "Dangerous area", "setting": "[4]; [6]", "value": "13.1 ± 3.8", "unit": "g"}, {"measurement": "Infarcted area", "setting": "[4]; [6]", "value": "2.2 ± 0.3", "unit": "g"}, {"measurement": "Infarction rate %", "setting": "[4]; [6]", "value": "18.1 ± 5.8", "unit": "%"}, {"measurement": "ST segment elevation compared to the saline group", "setting": "[4]; 5 min-4 h after injection", "value": "significantly decreased"}, {"measurement": "ST segment elevation", "setting": "[4]; 5 min, 10 mg/kg intravenous injection, dog", "value": 0.84}, {"measurement": "ST segment elevation", "setting": "[4]; 15 min, 10 mg/kg intravenous injection, dog", "value": 0.81}, {"measurement": "ST segment elevation", "setting": "[4]; 30 min, 10 mg/kg intravenous injection, dog", "value": 0.78}, {"measurement": "ST segment elevation", "setting": "[4]; 1 h, 10 mg/kg intravenous injection, dog", "value": 0.72}, {"measurement": "ST segment elevation", "setting": "[4]; 2 h, 10 mg/kg intravenous injection, dog", "value": 0.61}, {"measurement": "ST segment elevation", "setting": "[4]; 3 h, 10 mg/kg intravenous injection, dog", "value": 0.48}, {"measurement": "ST segment elevation", "setting": "[4]; 4 h, 10 mg/kg intravenous injection, dog", "value": 0.33}, {"measurement": "myocardial infarction range", "setting": "[4]; anesthetized dog processed with thoracotomy", "value": "significantly decrease"}, {"measurement": "effect on preventing myocardial ischemic necrosis compared to the safflor yellow injection", "setting": "[4]; dog", "value": "better effect"}, {"measurement": "Evans blue leached from the cerebral vascular", "setting": "[5]", "value": "significant effects on reducing the Evans blue leached from the cerebral vascular"}]}
